# Source: BindingDB's records for doi:10.1038/sj.bjp.0701336 (Roche Bioscience, 1997)
# Chains of the proteins cited; added tags and fusions are not shown.
# UniProt P34969, whole entry: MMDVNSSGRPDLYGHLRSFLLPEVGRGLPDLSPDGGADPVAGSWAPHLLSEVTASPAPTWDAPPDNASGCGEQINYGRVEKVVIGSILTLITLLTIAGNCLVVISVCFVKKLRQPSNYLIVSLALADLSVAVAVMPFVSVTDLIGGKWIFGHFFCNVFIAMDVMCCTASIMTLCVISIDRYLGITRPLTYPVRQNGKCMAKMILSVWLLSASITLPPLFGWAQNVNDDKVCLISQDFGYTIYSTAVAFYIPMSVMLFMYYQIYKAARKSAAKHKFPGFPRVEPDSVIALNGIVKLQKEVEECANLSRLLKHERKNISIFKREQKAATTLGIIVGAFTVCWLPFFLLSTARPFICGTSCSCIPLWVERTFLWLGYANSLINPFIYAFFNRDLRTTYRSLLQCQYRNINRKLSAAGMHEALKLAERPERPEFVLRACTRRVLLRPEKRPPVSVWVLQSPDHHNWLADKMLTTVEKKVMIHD
# pKi: −log10 of the molar value.
# Biological target: 5-hydroxytryptamine receptor 7 (Homo sapiens, UniProt P34969)
smiles,measurement,value
CCCN(CCC)C1CCc2cccc(O)c2C1 (stereo unspecified),pKi,6.85
